Among the data in patent US20190321329A1, “FORMULATION FOR THE TREATMENT OF ACNE” (published 2019) are solubility in acetone values, retold here.

Each structure is given as a SMILES string.

The data set can be described thus: Solubility in acetone (remark in suspension preparation).

Turning to `Cc1ccc(C(=O)OOC(=O)c2ccc(C)cc2)cc1`, the solubility in acetone result is “not very soluble in acetone”.
